Target: D(1A) dopamine receptor (Rattus norvegicus, UniProt P18901)

Amino acid sequences for entries named in this document (tags omitted).
UniProt P18901, whole entry: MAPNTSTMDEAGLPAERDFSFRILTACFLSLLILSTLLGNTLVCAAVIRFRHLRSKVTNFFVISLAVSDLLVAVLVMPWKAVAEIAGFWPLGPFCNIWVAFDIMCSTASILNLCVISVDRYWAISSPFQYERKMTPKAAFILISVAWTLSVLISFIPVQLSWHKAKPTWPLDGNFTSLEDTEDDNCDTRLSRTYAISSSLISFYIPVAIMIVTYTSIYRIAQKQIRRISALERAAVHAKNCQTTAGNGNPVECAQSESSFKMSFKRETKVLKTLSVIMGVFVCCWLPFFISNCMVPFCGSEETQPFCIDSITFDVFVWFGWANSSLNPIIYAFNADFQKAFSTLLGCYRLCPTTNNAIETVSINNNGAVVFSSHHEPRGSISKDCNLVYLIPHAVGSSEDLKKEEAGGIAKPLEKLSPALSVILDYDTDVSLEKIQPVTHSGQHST

Structure (SMILES): CN1C(=O)CN=C(c2ccccc2)c2cc(Cl)ccc21
- Ki: > 10 µM
